In article PMC9867526, “Drug Metabolism of Hepatocyte-like Organoids and Their Applicability in In Vitro Toxicity Testing” (Molecules, 2023):

System: HL-ICOs
Experiment: Cytotoxicity (CellTiter-Glo ATP viability) in hepatocyte-like intrahepatic cholangiocyte organoids, 48 h exposure
Format: cell-based
Conditions: Homo sapiens, HL-ICOs differentiation day 12, ICO donor in fourth HL-ICO column, 48 h single dose, cell viability (ATP)
Procedure: The cell suspension was cultured in MatrigelTM (Corning, New York, NY, USA) droplets in expansion medium (EM) until organoids were formed, as previously described. EM consisted of Advanced DMEM/F12 (Life Technologies) supplemented with 1% (v/v) penicillin-streptomycin (Life Technologies), 1% (v/v) GlutaMax (Life Technologies), 10 mM HEPES (4-(2-hydroxyethyl)-1-piperazineethanesulfonic acid, Life Technologies), 2% (v/v) B27 supplement without vitamin A (Invitrogen, Carlsbad, CA, USA), 1% (v/v) N2 supplement (Invitrogen), 10 mM nicotinamide (Sigma-Aldrich, St Louis, MO, USA), 1.25 mM N-acetylcysteine (Sigma-Aldrich), 10% (v/v) R-spondin-1 conditioned medium (the Rspo1-Fc-expressing cell line was a kind gift from Calvin J. Kuo), 10 μM forskolin (Sigma-Aldrich), 5 μM A83-01 (transforming growth factor beta inhibitor; Tocris Bioscience, Bristol, UK), 50 ng/mL EGF (Invitrogen), 25 ng/mL HGF (Peprotech, Rocky Hill, NJ, USA), 0.1 μg/mL FGF10 (Peprotech) and 10 nM recombinant human ([…])-gastrin I (Sigma-Aldrich). Medium was changed twice a week. Passaging occurred every 7-10 days at ratios ranging between 1:2 and 1:4. All cultures were kept in a humidified atmosphere of 95% air and 5% CO2 at 37 °C. […] The viability of exposed cells was determined by cellular ATP levels using the CellTiter-Glo Luminescent Cell Viability Assay (Promega, Madison, WI, USA). […]

O=C(O)Cc1ccccc1Nc1c(Cl)cccc1Cl [Diclofenac]
EC50: 476 µM
